Source: paper PMC11823609, “Advancements in the fight against globally distributed OXA-48 carbapenemase: evaluating the new generation of carbapenemase inhibitors” (Antimicrobial Agents and Chemotherapy, 2025)

Protein sequences, listed by entry. Tags and fused reporters are not part of them. Residues count along the entry.
UniProt Q6XEC0, 23-265 limits assumed: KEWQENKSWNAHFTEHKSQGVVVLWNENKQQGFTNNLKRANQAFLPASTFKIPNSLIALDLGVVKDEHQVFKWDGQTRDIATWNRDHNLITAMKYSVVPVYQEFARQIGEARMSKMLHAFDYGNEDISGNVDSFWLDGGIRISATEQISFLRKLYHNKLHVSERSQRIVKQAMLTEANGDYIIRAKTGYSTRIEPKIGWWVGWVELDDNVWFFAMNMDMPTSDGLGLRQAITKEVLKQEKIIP

Key:
OXA-48 [1] = target: T1, OXA-48 (Klebsiella pneumoniae, UniProt Q6XEC0); assay: Steady-state inhibition constant (Ki app), nitrocefin reporter; type: biochemical; set-up: These primers amplified the blaOXA-48 gene without the signal peptide; GST (glutathione S-transferase, pGEX-6P-1) (N, cleaved yes); made in house; host or cells: E. coli BL21; details: nitrocefin 300 µM reporter, 25 °C, pH 7.4
OXA-48 [2] = target: T1, OXA-48; assay: Dissociation rate (koff) by jump dilution; t1/2 and Kd; type: biochemical; set-up: These primers amplified the blaOXA-48 gene without the signal peptide; GST (glutathione S-transferase, pGEX-6P-1) (N, cleaved yes); made in house; host or cells: E. coli BL21; details: koff/kon

O=C(NNC(=O)[C@@H]1CC[C@@H]2CN1C(=O)N2OS(=O)(=O)O)[C@@H]1CCCNC1 [Zidebactam, zidebactam]
Ki (OXA-48 [1]): > 800 µM
Kd (OXA-48 [2]): 1.37 µM
